Patent US20090208493A1, “Compounds and methods for the selective inhibition of ABCB1, ABCC1 and ABCG2 transporters and the treatment of cancers, especially drug resistant cancers and high throughput flow cytometry assay to detect selective inhibitors” (STC. UNM, priority 2007, published 2009)
Where a name gives a salt, the structure may show the parent alone.

Protein sequences, listed by entry. Tags and fused reporters are not part of them.
UniProt P08183, whole entry: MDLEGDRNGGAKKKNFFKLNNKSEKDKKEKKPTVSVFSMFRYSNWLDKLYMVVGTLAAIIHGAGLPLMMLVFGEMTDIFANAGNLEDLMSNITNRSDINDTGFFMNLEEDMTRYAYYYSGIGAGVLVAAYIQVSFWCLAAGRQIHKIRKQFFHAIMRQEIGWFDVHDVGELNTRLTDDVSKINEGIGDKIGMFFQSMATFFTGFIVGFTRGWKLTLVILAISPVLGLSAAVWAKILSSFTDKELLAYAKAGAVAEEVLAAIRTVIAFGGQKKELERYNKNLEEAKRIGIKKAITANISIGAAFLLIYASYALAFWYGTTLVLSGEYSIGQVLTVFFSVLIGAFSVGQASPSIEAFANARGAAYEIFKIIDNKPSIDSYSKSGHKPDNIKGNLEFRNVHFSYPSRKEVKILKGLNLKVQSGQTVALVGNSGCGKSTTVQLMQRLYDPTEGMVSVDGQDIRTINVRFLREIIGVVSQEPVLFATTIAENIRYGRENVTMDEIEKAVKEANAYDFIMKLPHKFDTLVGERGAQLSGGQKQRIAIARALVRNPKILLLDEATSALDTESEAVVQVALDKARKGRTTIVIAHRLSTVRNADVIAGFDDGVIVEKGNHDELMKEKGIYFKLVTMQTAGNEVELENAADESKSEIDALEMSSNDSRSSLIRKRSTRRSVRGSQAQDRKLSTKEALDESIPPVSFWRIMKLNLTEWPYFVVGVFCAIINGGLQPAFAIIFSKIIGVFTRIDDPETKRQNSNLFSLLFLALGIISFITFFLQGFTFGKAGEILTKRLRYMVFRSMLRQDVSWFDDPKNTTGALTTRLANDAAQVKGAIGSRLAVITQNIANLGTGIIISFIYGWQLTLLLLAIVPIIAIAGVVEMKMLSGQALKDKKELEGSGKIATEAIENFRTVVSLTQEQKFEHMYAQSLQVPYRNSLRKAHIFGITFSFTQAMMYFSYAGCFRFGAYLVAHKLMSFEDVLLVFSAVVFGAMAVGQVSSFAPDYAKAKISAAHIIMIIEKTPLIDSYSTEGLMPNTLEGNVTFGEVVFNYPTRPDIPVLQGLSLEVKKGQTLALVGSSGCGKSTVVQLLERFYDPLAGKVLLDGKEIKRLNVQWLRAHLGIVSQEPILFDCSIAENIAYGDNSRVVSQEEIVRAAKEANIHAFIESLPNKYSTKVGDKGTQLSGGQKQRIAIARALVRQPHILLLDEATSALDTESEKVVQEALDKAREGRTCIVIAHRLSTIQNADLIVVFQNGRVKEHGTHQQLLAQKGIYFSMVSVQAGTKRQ

Molecular target: ABCB1 (Homo sapiens, UniProt P08183)
Experiment: JC-1 efflux HyperCyt flow cytometry assay (ABCB1 reversal)

IC50: 760 ± 180 nM
SMILES: COC(=O)C1=C(C)NC(C)=C(C(=O)OCCN(C)Cc2ccccc2)C1c1cccc([N+](=O)[O-])c1 (stereo not shown) [Nicardipine HCL, nicardipine]
